Data on 1 substance can be found in patent US20240024479A1, “NK CELLS OR T CELLS EXPRESSING CHIMERIC HEMATOPOIETIC GROWTH FACTOR RECEPTORS AND METHODS OF USE” (The United States of America, as represented by the …, priority 2020, published 2024).

In experiment [1] the test system is EPOR+ NK-92 cells. The experiment can be described thus: In vitro cell expansion of EPOR+ NK-92 cells. The settings on record: day 8; 5 U/ml of IL-2 alone. In kind it is cell-based, human. The source says: Lentiviral production and transduction: Lentivirus gene expression vectors encoding EGFP-P2A linker-human EPOR or EGFP-P2A-human c-MPL were cloned according to our design by VectorBuilder (TX, USA). Plasmid DNA for the above and pCMV-dR8.2 dvpr and pCMV-VSV-G packaging plasmids was purified using ZymoPUREII-EndoZero plasmid maxiprep kit (Zymo Research, CA). Lentiviral particles were generated with HEK293T cells and Lipofectamine3000 reagent (Thermo Fisher Scientific, MA) following the manufacturers' instructions. Viral supernatant was harvested at 24 and 48 hours, pooled, and concentrated with lenti-X concentrator (Takara Bio, Japan) or by centrifugation at 18,600 rpm for 2 hours at 4° C. […] After 5 days post-transduction, cells were stained and sorted with fluorescence-activated cell sorting (FACS) using a BD FACSAria II to purify GFP^+EPOR^+ and GFP^+c-MPL^+ NK cell populations.
In vitro cell expansion cultures: The NK-92 (5×10^4 cell/ml) and KHYG-1 (1×10^4 cell/ml) cells were cultured in 1 ml of complete medium in 24-well plate. […] Trypan blue negative cells were counted every other day. […] Viable cells were counted and percentage of GFP^+ cells was acquired on indicated days (NK: day 4 and 6, T: day 3 and 6). The fold change of GFP^+ cells was calculated by multiplying the counted cell number times the fraction GFP^+.

Experiment [2] concerns GFP+ MPL+ cells. Description: Persistence of transduced human NK cells in immunodeficient mice. The following applies: mice administered IL-2 10,000 IU/mouse daily, 4 days. The format is in vivo, NSG mice. The source says:
Cells were maintained in IL-2-containing medium for 3-4 additional days and averaged approximately 20% GFP^+. Both populations were then mixed at a 1:1 ratio immediately before injection intravenously into NSG mice (such that GFP^+ MPL^+ cells and GFP^+ CD34^+ cells each constituted ˜10% of the mixed cells). Each mouse received 2.2×10^7 total human NK cells. […] MPL-transduced NK cells were identified as GFP^+ MPL^+ while CD34-transduced NK cells were gated as GFP^+ CD34^+. The frequency of transduced cells is presented (FIG. 14A) as a percentage of MHC-I^+ human cells isolated from organs or (FIG. 14B) as percent of total live mononuclear cells recovered from each organ. The legend applies to both FIGS. 14A and 14B. Data from 9 mice per group are shown with NK cells derived from 3 human blood donors. […]
Persistence of transduced human NK cells in immunodeficient mice: NK cells from human PBMC were transduced with matched lentiviral vectors encoding GFP/MPL or GFP/CD34 then mixed at a 1:1 ratio and injected intravenously into NSG mice (2.2×10^7 total cells/mouse). […] The presence of transduced human cells was quantified in various organs via flow cytometry using antibodies to human MHC class I (W6/32) (BioLegend), c-MPL (1.6.1), CD34 (581) (BD BioSciences), GFP-fluorescence, and Live/Dead Aqua viability dye (Thermo Fisher).

Experiment [3] relates to c-MPL+ NK-92 cells. Description: Flow cytometry of cell signaling and anti-apoptotic proteins, c-MPL+ NK-92. In kind it is cell-based, human. From the text:
Flow cytometry, reagents and pathway analysis: Fluorochrome-conjugated monoclonal antibodies were used as follows: BD Biosciences: CD56-PE-Cy7 (NCAM16.2), CD3-PE (UCHT1), c-MPL-PE (1.6.1), STAT5(pY694)-Alexa Fluor647 (47/stat5(pY694)), NKp46-APC (9E2), NKp44-PE (p44-8), FAS-PE (DX2) CD62L-V450 (DREG-56); R&D systems: EPOR-PE (FAB307P); Biolegend: Bc1-2-PE (100), TRAIL-APC (RIK-2), CXCR4-BV421 (12G5), KIR3DL1-BV421 (DX9); Abcam: Bcl-xL-PE (ab208747); Cell signaling technology: P-p44/42 MAPK-Alexa Fluor647 (E10) and p-S6 ribosomal protein-PE (D57.2.2E); Beckman Coulter: NKG2A-PE (Z199), KIR2DL1/S1-PE (EB6B), KIR2DL2/3-PE/Cy5.5 (GL183). Staining was performed in phosphate-buffered saline (PBS) with 2% FBS and 2 mM EDTA and analyzed on a BD LSRFortessa machine. If intracellular staining was required, BD cytofix/cytoperm (BD Biosciences) was applied for cell fixation and permeabilization after surface staining. The apoptosis assay was performed using PE annexinV apoptosis detection kit (BD Biosciences). The data were analyzed on FlowJo software.
(§1) Expression of target proteins was evaluated afterward by flow cytometry as described above.
(In general: Flow cytometry measures light scatter and fluorescence of single cells or particles in a stream.)

Experiment [4] deals with Raji tumor cells. Description: Flow cytometry based killing assay, c-MPL+ NK-92 effectors vs Raji. In kind it is cell-based, human. On the procedure:
The target cells were labeled with 1 μM cell trace violet in some experiments (Thermo Fisher Scientific). The effector and target cells were incubated together in duplicate wells at specific E:T ratio in complete medium without cytokines for 4 hours (total cell number: 200,000 to 250,000 per well in 96-well plate). 7-AAD and Sphero AccuCount Fluorescent particles (Spherotech, IL) were added before analysis by flow cytometry. The absolute number of viable 7-AAD negative target cells was calculated according to bead numbers added (Cooper et al., Leukemia 32:1970-1983, 2018). The percentage of dead cells was calculated relative to target cell only control wells.

The test system of experiment [5] is GFP+ MPL+ NK cells. Description: Degranulation assay and cytokine production, c-MPL-transduced primary NK cells with K562. The format is cell-based, human. The following applies: 4 days, K562 1:1. Here is the method:
To examine degranulation, cells were washed after two hours and stained with anti-CD107a (H4A3) (BioLegend). To assay cytokine production, GolgiPlug and GolgiStop (BD Biosciences) were added at manufacturer's recommended concentrations within the first hour of co-culture with K562. After 4 hours, cells were washed and stained for cell surface markers, then stained intracellularly with mAb recognizing TNF-α (Mab 11) and IFN-γ (B27) (BD Biosciences).

In experiment [6] the test system is EPOR+ NK-92 cells. The experiment can be described thus: Flow cytometry of cell signaling and anti-apoptotic proteins, EPOR+ NK-92. In kind it is cell-based, human. On the procedure:
(§2) Staining was performed in phosphate-buffered saline (PBS) with 2% FBS and 2 mM EDTA and analyzed on a BD LSRFortessa machine. If intracellular staining was required, BD cytofix/cytoperm (BD Biosciences) was applied for cell fixation and permeabilization after surface staining. The apoptosis assay was performed using PE annexinV apoptosis detection kit (BD Biosciences). The data were analyzed on FlowJo software.
as §1

The test system of experiment [7] is EPOR+ NK-92 cells. Description: Short-term expansion and apoptosis assay, EPOR+ NK-92. In kind it is cell-based, human. The following applies: IL-2 200 U/ml alone vs LD IL-2 alone; day 3. On the procedure: In vitro cell expansion cultures: The NK-92 (5×10^4 cell/ml) and KHYG-1 (1×10^4 cell/ml) cells were cultured in 1 ml of complete medium in 24-well plate. […] Trypan blue negative cells were counted every other day. […] For competitive primary NK and T cell expansion assay, all transduced cells (5×10^5/ml for NK and 4×10^5/ml for T cell) containing a mixture of GFP positive (transduced) and GFP negative (untransduced) cells were plated on day 0. Fresh medium with appropriate supplements was replaced every other day for NK cells and only on day 3 for T cell experiment. Viable cells were counted and percentage of GFP^+ cells was acquired on indicated days (NK: day 4 and 6, T: day 3 and 6). The fold change of GFP^+ cells was calculated by multiplying the counted cell number times the fraction GFP^+.
as §2

Experiment [8] deals with c-MPL+ NK-92 cells. Description: Short-term expansion and apoptosis assay, c-MPL+ NK-92. In kind it is cell-based, human. The following applies: IL-2 200 U/ml alone vs LD IL-2 alone; day 3. Here is the method:
In vitro cell expansion cultures: The NK-92 (5×10^4 cell/ml) and KHYG-1 (1×10^4 cell/ml) cells were cultured in 1 ml of complete medium in 24-well plate. […] Trypan blue negative cells were counted every other day. […] The short-term cell expansion assay was performed in similar fashion, except cells were initially cultured without IL-2 overnight before adding different cytokines and enumerating the cell number. For competitive primary NK and T cell expansion assay, all transduced cells (5×10^5/ml for NK and 4×10^5/ml for T cell) containing a mixture of GFP positive (transduced) and GFP negative (untransduced) cells were plated on day 0. Fresh medium with appropriate supplements was replaced every other day for NK cells and only on day 3 for T cell experiment. Viable cells were counted and percentage of GFP^+ cells was acquired on indicated days (NK: day 4 and 6, T: day 3 and 6). The fold change of GFP^+ cells was calculated by multiplying the counted cell number times the fraction GFP^+. […]

“IL-2: recombinant human (rh) IL-2 (Roche)”: the “fold expansion of EPOR+ NK-92 cells” value in experiment [1] was 4.75 fold. In addition, the “proportions of GFP+ MPL+ and GFP+ CD34+ cells among human cells” value in experiment [2] is on record as “roughly equal proportions”. Also, the “pSTAT5 and pS6 levels” value in experiment [3] (IL-2, up to 200 U/ml) was “increased pSTAT5 and pS6 levels in a dose dependent manner”; in experiment [6] (IL-2, up to 200 U/ml), “increased pSTAT5 and pS6 levels in a dose dependent manner”. Further, the pS6 expression in experiment [3] (LD IL-2 alone) is 7.16. For the same substance, the “phospho-p44/42 MAPK expression” value is “No alteration” in experiment [3] (cultures supplemented with IL-2 or TPO, 15 minutes) and “No alteration” in experiment [6] (cultures supplemented with IL-2 or EPO, 15 minutes). Further, the “mean percentage of dead Raji cells” value was determined as 58% in experiment [4] (c-MPL+ NK-92, IL-2 200 U/ml alone, E:T 1:1); 67% in experiment [4] (c-MPL+ NK-92, IL-2 200 U/ml alone, E:T 10:1); 51% in experiment [4] (c-MPL+ NK-92, LD IL-2 alone, E:T 1:1); 62% in experiment [4] (c-MPL+ NK-92, LD IL-2 alone, E:T 10:1). In addition, the results for the “degranulation in GFP+ MPL+ NK cells (CD107a)” value in experiment [5] (25 U/ml of IL-2 alone) and in experiment [5] (500 U/ml IL-2) were 48% and 86%, respectively. The “proportion of dead/apoptotic cells” value in experiment [7] and in experiment [8] was “significantly lower proportions of dead/apoptotic cells” in each case.
